The values below come from the Human Domainome abundance scans (Beltran et al. 2025).

± gives the uncertainty stated by the source.

The labels stand for the following.
B1: Tyrosine-protein kinase ABL1, residues 64 to 120; numbered along this chain, P00519 (parent)
chain: NLFVALYDFVASGDNTLSITKGEKLRVLGYNHNGEWCEAQTKNGQGWVPSNYITPVN

In this data set the parent is B1. Briefly: abundance fitness (aPCA) (normalised: wild type 0, dead -1); higher = more abundant; growth selection in yeast, the domain comes from the species named. Particulars: Homo sapiens.
Take NLFVALYDFVASGDNTLSITKGEKLRVLGYNHNGEWCEAQTKNGQGFVPSNYITPVN: the abundance fitness was 0.238 ± 0.13. Regarding NLFVALYDFVASGDNTLSITKGEKLRVLGYNHNGEWCEAQTKNGQGIVPSNYITPVN, the abundance fitness is -0.21 ± 0.18. Regarding NLFVALYDFVASGDNTLSITKGEKLRVLGYNHNGEWCEAQTKNGQGYVPSNYITPVN, the abundance fitness was 0.029 ± 0.081. In the case of NLFVALYDFVASGDNTLSITKGEKLRVLGYNHNGEWCEAQTKNGQGEVPSNYITPVN, the abundance fitness was -0.764 ± 0.13. The result for NLFVALYDFVASGDNTLSITKGEKLRVLGYNHNGEWCEAQTKNGQGCVPSNYITPVN reads -0.151 ± 0.11.

NLFVALYDFVASGDNTLSITKGEKLRVLGYNHNGEWCEAQTKNGQYWVPSNYITPVN: the abundance fitness is -0.292 ± 0.14. As for NLFVALYDFVASGDNTLSITKGEKLRVLGYNHNGEWCEAQTKNGQIWVPSNYITPVN, the figure is -0.098 ± 0.23. As for NLFVALYDFVASGDNTLSITKGEKLRVLGYNHNGEWCEAQTKNGQRWVPSNYITPVN, the figure is -0.415 ± 0.082; as for NLFVALYDFVASGDNTLSITKGEKLRVLGYNHNGEWCEAQTKNGQLWVPSNYITPVN, -0.3 ± 0.083; as for NLFVALYDFVASGDNTLSITKGEKLRVLGYNHNGEWCEAQTKNGQCWVPSNYITPVN, -0.113 ± 0.13.

NLFVALYDFVASGDNTLSITKGEKLRVLGYNHNGEWCEAQTKNGQVWVPSNYITPVN: the abundance fitness was -0.251 ± 0.064. As for NLFVALYDFVASGDNTLSITKGEKLRVLGYNHNGEWCEAQTKNGQPWVPSNYITPVN, the figure is -0.952 ± 0.37. With NLFVALYDFVASGDNTLSITKGEKLRVLGYNHNGEWCEAQTKNGQSWVPSNYITPVN, the abundance fitness is -0.747 ± 0.12. As for NLFVALYDFVASGDNTLSITKGEKLRVLGYNHNGEWCEAQTKNGQEWVPSNYITPVN, the figure is -0.847 ± 0.19; as for NLFVALYDFVASGDNTLSITKGEKLRVLGYNHNGEWCEAQTKNGQKWVPSNYITPVN, -0.77 ± 0.23; as for NLFVALYDFVASGDNTLSITKGEKLRVLGYNHNGEWCEAQTKNGQMWVPSNYITPVN, -0.231 ± 0.12. NLFVALYDFVASGDNTLSITKGEKLRVLGYNHNGEWCEAQTKNGQAWVPSNYITPVN: the abundance fitness was -0.083 ± 0.062.

In the case of NLFVALYDFVASGDNTLSITKGEKLRVLGYNHNGEWCEAQTKNGQQWVPSNYITPVN, the abundance fitness was -0.681 ± 0.16. Take NLFVALYDFVASGDNTLSITKGEKLRVLGYNHNGEWCEAQTKNGQTWVPSNYITPVN: the abundance fitness was -0.541 ± 0.14.

As for NLFVALYDFVASGDNTLSITKGEKLRVLGYNHNGEWCEAQTKNGQFWVPSNYITPVN, the abundance fitness was -0.359 ± 0.079. The result for NLFVALYDFVASGDNTLSITKGEKLRVLGYNHNGEWCEAQTKNGQDWVPSNYITPVN reads -0.868 ± 0.34; that for NLFVALYDFVASGDNTLSITKGEKLRVLGYNHNGEWCEAQTKNGQWWVPSNYITPVN, -0.263 ± 0.12; that for NLFVALYDFVASGDNTLSITKGEKLRVLGYNHNGEWCEAQTKNGYGWVPSNYITPVN, -0.221 ± 0.085. Turning to NLFVALYDFVASGDNTLSITKGEKLRVLGYNHNGEWCEAQTKNGVGWVPSNYITPVN, the abundance fitness is -0.094 ± 0.091.

For NLFVALYDFVASGDNTLSITKGEKLRVLGYNHNGEWCEAQTKNGQGWSPSNYITPVN, the abundance fitness is -1.05 ± 0.28.

On to NLFVALYDFVASGDNTLSITKGEKLRVLGYNHNGEWCEAQTKNGQGWDPSNYITPVN, for which the abundance fitness is -0.679 ± 0.24. As for NLFVALYDFVASGDNTLSITKGEKLRVLGYNHNGEWCEAQTKNGQGWQPSNYITPVN, the figure is -0.526 ± 0.28; as for NLFVALYDFVASGDNTLSITKGEKLRVLGYNHNGEWCEAQTKNGQGWAPSNYITPVN, -0.679 ± 0.17. With NLFVALYDFVASGDNTLSITKGEKLRVLGYNHNGEWCEAQTKNGQGWMPSNYITPVN, the abundance fitness was -0.41 ± 0.12.

Turning to NLFVALYDFVASGDNTLSITKGEKLRVLGYNHNGEWCEAQTKNGQGWTPSNYITPVN, the abundance fitness was -0.7 ± 0.16. As for NLFVALYDFVASGDNTLSITKGEKLRVLGYNHNGEWCEAQTKNGQGWPPSNYITPVN, the figure is -1.01 ± 0.1; as for NLFVALYDFVASGDNTLSITKGEKLRVLGYNHNGEWCEAQTKNGQGWIPSNYITPVN, 0.058 ± 0.063; as for NLFVALYDFVASGDNTLSITKGEKLRVLGYNHNGEWCEAQTKNGQGWGPSNYITPVN, -1.04 ± 0.21. Turning to NLFVALYDFVASGDNTLSITKGEKLRVLGYNHNGEWCEAQTKNGQGWWPSNYITPVN, the abundance fitness is -1.02 ± 0.11. The result for NLFVALYDFVASGDNTLSITKGEKLRVLGYNHNGEWCEAQTKNGQGWRPSNYITPVN reads -0.967 ± 0.12. Turning to NLFVALYDFVASGDNTLSITKGEKLRVLGYNHNGEWCEAQTKNGQGWEPSNYITPVN, the abundance fitness was -0.981 ± 0.28.

Regarding NLFVALYDFVASGDNTLSITKGEKLRVLGYNHNGEWCEAQTKNGQGWFPSNYITPVN, the abundance fitness is -0.334 ± 0.23.

Turning to NLFVALYDFVASGDNTLSITKGEKLRVLGYNHNGEWCEAQTKNGQGWCPSNYITPVN, the abundance fitness is -0.088 ± 0.13. As for NLFVALYDFVASGDNTLSITKGEKLRVLGYNHNGEWCEAQTKNGQGWVPSEYITPVN, the figure is 0.01 ± 0.092; as for NLFVALYDFVASGDNTLSITKGEKLRVLGYNHNGEWCEAQTKNGQGWVPSAYITPVN, -0.065 ± 0.064; as for NLFVALYDFVASGDNTLSITKGEKLRVLGYNHNGEWCEAQTKNGQGWVPSHYITPVN, -0.116 ± 0.17. As for NLFVALYDFVASGDNTLSITKGEKLRVLGYNHNGEWCEAQTKNGQGWVPSFYITPVN, the abundance fitness is 0.017 ± 0.17.

For NLFVALYDFVASGDNTLSITKGEKLRVLGYNHNGEWCEAQTKNGQGWVPSKYITPVN, the abundance fitness worked out at 0.006 ± 0.075.

Turning to NLFVALYDFVASGDNTLSITKGEKLRVLGYNHNGEWCEAQTKNGQGWVPSDYITPVN, the abundance fitness was -0.127 ± 0.1. With NLFVALYDFVASGDNTLSITKGEKLRVLGYNHNGEWCEAQTKNGQGWVPSCYITPVN, the abundance fitness is -0.039 ± 0.11. The result for NLFVALYDFVASGDNTLSITKGEKLRVLGYNHNGEWCEAQTKNGQGWVPSGYITPVN reads -0.057 ± 0.057. Consider NLFVALYDFVASGDNTLSITKGEKLRVLGYNHNGEWCEAQTKNGQGWVPSIYITPVN, for which the abundance fitness is -0.233 ± 0.27.
